Measured values: patent US20220296535A1, “Antibacterial Dosage Regime Using Cannabinoids” (Botanix Pharmaceuticals Limited, priority 2019, published 2022)

Experiments:
[1] = test system: GP_064 S. aureus NARSA, VRS1 (VRSA); test: microbe, parasite or virus in culture; conditions: Staphylococcus aureus, no serum (from report 99962_002), head GP_064 S. aureus NARSA
[2] = test system: GP_035 S. aureus NRS60 (ATCC 700699, NRS1; MRSA, VISA); test: microbe, parasite or virus in culture; conditions: Staphylococcus aureus, ATCC700699|MRSA|NRS1|NRS60|VISA, no serum (from report 99962_002); head GP_035 S. aureus NRS60
[3] = test system: GP_020 S. aureus MRSA (ATCC 43300); test: microbe, parasite or virus in culture; conditions: Staphylococcus aureus, ATCC43300|MRSA, no serum (from report 99962_002); head S. aureus MRSA
[4] = test system: GP_020 S. aureus MRSA (ATCC 43300); conditions: 50% human serum + 50% CaMHB
[5] = test system: GP_035 S. aureus NRS60 (ATCC 700699, NRS1; MRSA, VISA); conditions: GP_035 S. aureu NRS60; 50% human serum + 50% CaMHB
[6] = test system: GP_064 S. aureus NARSA, VRS1 (VRSA); conditions: RS1, 50% human serum + 50% CaMHB

SMILES	MIC [1] [µg/mL]	MIC [2] [µg/mL]	MIC [3] [µg/mL]	MIC [4]	MIC [5]	MIC [6]
C=C(C)C1CCC(C)=CC1c1c(O)cc(CCCCC)cc1O (stereo not drawn) [Cannabidiol, 2-[3-methyl-6-(1-methylethenyl)-2-cyclohexen-1-yl]-5-pentyl-1,3-benzenediol]	2 (≈ 6.36 µM)	1 (≈ 3.18 µM)	2 (≈ 6.36 µM)	inactive	inactive	inactive
C/C(=C\C(=O)OCCCCCCCCC(=O)O)C[C@@H]1OC[C@H](C[C@@H]2O[C@H]2[C@@H](C)[C@H](C)O)[C@@H](O)[C@H]1O [Mupirocin]				4/8	4/8	
CN[C@H](CC(C)C)C(=O)N[C@H]1C(=O)N[C@@H](CC(N)=O)C(=O)N[C@H]2C(=O)N[C@H]3C(=O)N[C@H](C(=O)N[C@H](C(=O)O)c4cc(O)cc(O)c4-c4cc3ccc4O)[C@H](O)c3ccc(c(Cl)c3)Oc3cc2cc(c3O[C@@H]2O[C@H](CO)[C@@H](O)[C@H](O)[C@H]2O[C@H]2C[C@](C)(N)[C@H](O)[C@H](C)O2)Oc2ccc(cc2Cl)[C@H]1O [Vancomycin]					4/16	

In brackets after ≈: the same amount, converted by molar mass. Read-outs that look alike come from different tables or passages of the source.
